From published antibiotic growth screens (doi:10.1038/s41589-023-01349-8)
Some of the results follow.

System: A. baumannii ATCC 17978
Assay: relative growth (fraction of control); higher = less inhibition
Details: 50 µM

| SMILES | relative growth |
| --- | --- |
| COc1ccccc1CNC(=O)C[C@H]1CC[C@@H]2[C@H](COC[C@H](O)CN2C(=O)Nc2ccc(F)cc2)O1 | 1.04 |
| CCCCCCCCCC[C@@H](C(=O)O)[C@]1(C(=O)O)CCC(=O)O1 | 1.2 |
| Cn1c(=O)c2c(nc(N3CCCCC3)n2CCN)n(C)c1=O | 0.917 |
| Cl.Cl.OCCN1CCN(CCCN2c3ccccc3Sc3ccc(C(F)(F)F)cc32)CC1 | 0.489 |
| O=C(C[C@H]1CC[C@H]2[C@@H](COC[C@@H](O)CN2S(=O)(=O)c2cccc(F)c2)O1)NCCCN1CCOCC1 | 1.02 |
| COc1oc(C(=O)NC2CCCCC2)c(-c2ccc(Cl)cc2)c1S(=O)(=O)c1ccc(C(F)(F)F)cc1[N+](=O)[O-] | 0.992 |
| CC(=O)OC(CC(=O)O)[N+](C)(C)C.[Cl-] (stereo not given) | 1.12 |
| COc1ccc(S(=O)(=O)N(C)C[C@H]2Oc3cc(C#CC4CCCC4)ccc3S(=O)(=O)N([C@@H](C)CO)C[C@H]2C)cc1 | 1.26 |
| COc1ccc(/C=C/C(=O)c2ccc(O)cc2O)cc1 | 1.04 |
| COc1cccc(S(=O)(=O)N[C@H]2CC[C@H](CC(=O)NC3CCC3)O[C@@H]2CO)c1 | 1.04 |
| C[C@@H]1CN([C@@H](C)CO)S(=O)(=O)c2ccc(C3=CCCCC3)cc2O[C@@H]1CN(C)C(=O)C1CCOCC1 | 1.24 |
| COc1ccc([Si](C)(C)[C@H]2[C@H](CCO)O[C@@]3(C(=O)N(Cc4cccc(N5C(=O)c6cccc7cccc5c67)c4)c4ccccc43)[C@@H]2C)cc1 | 1.4 |
| CC(=O)N[C@@H]1C[C@H](O)[C@@H](O)CCC(=O)N[C@H](c2ccccc2)COC1=O | 1 |
| CO[C@H]1CN(C)C(=O)c2ccc(NS(=O)(=O)c3cn(C)cn3)cc2OC[C@H](C)N(CCC(F)(F)F)C[C@H]1C | 1.16 |
| NCCOc1ccccc1Cc1ccccc1 | 0.745 |
| C[C@@H]1CN([C@H](C)CO)S(=O)(=O)c2ccc(C3=CCCC3)cc2O[C@@H]1CN(C)S(=O)(=O)c1ccc(F)cc1 | 1 |
| CN(C)CCCN1C(=O)[C@@H]2[C@@H](C1=O)[C@@H]1C=C[C@@H]2C1 | 0.915 |
| Cc1cc(=O)oc2cc(O[C@H]3O[C@@H](CO)[C@@H](O)[C@@H](O)[C@@H]3O)ccc12 | 1.02 |
| Cc1cc(C)n(CCC(=O)O)n1 | 0.912 |
| O=C(C1=C[C@H](c2coc3ccccc3c2=O)C[C@H](OCCCCO)O1)N1CCOCCOCCOCCOCC1 | 1.18 |
| COc1ccc2c(c1)OCC(Cc1ccc(OC)c(O)c1)C2=O (stereo not given) | 1.16 |
| Cc1ccc(S(=O)(=O)N[C@H](C(=O)NCCn2cc(-c3cccc(/C=C/C(=O)NO)c3)nn2)C(C)C)cc1 | 1.1 |

| SMILES | relative growth |
| --- | --- |
| Cc1cc(C(C)(C)C)c(O)c(C(C)(C)C)c1 | 0.987 |
| COCCOC(=O)N1C(=O)[C@@]2(c3cc(C#CCC(C(=O)OC)C(=O)OC)ccc31)[C@H](c1ccccc1OCCO)N1[C@H](c3ccccc3)[C@H](c3ccccc3)OC(=O)[C@H]1[C@@H]2C(=O)Nc1nc2ccccc2s1 | 0.985 |
| CC(C)NC(=O)N[C@@H]1C=C[C@H](CC(=O)O)O[C@@H]1CO | 0.895 |
| CCCC[C@H](NC(C)=O)C(=O)N[C@@H](CCC(N)=O)C(=O)N[C@@H](Cc1c[nH]cn1)C(=O)N[C@H](Cc1ccccc1)C(=O)N[C@@H](CCCNC(=N)N)C(=O)N[C@H](Cc1c[nH]c2ccccc12)C(=O)NCC(N)=O | 0.902 |
| CN1CCN(C(=O)C[C@H]2C=C[C@@H](NC(=O)c3ccc4c(c3)OCO4)[C@H](CO)O2)CC1 | 1.17 |
| O=C(C[C@H]1CC=CCCC(=O)OCCNC1=O)NCCO | 1.1 |
| CN1CCN(C(=O)C[C@H]2CC[C@@H](NC(=O)Cc3ccccn3)[C@@H](CO)O2)CC1 | 1.02 |
| Cc1cc2nc3c(=O)[nH]c(=O)nc-3n(C[C@@H](O)[C@@H](O)[C@@H](O)COP(=O)([O-])O)c2cc1C.[Na+] | 0.917 |
| N/N=C(\C(=O)O)c1ccccc1N | 1.04 |
| COc1ccc([Si](C)(C)[C@@H]2[C@@H](CCO)O[C@]3(C(=O)N(Cc4cccc(N5CCCCC5=O)c4)c4ccccc43)[C@H]2C)cc1 | 0.744 |
| O=C(C[C@@H]1C=C[C@@H](NC(=O)CN2CCOCC2)[C@H](CO)O1)NCCc1ccncc1 | 0.967 |
| CCCN1C[C@H](C)[C@@H](OC)CN(C)C(=O)c2cc(NS(=O)(=O)c3cn(C)cn3)ccc2OC[C@H]1C | 0.951 |
| C[C@@H]1CN([C@@H](C)CO)C(=O)c2cc(C#Cc3ccccc3F)cnc2O[C@@H]1CN(C)C(=O)Cc1cccnc1 | 1.06 |
| C[C@@H]1CN([C@H](C)CO)S(=O)(=O)c2ccc(C#Cc3ccccn3)cc2O[C@@H]1CN(C)Cc1ccccc1 | 0.952 |
| O=C(C[C@H]1C=C[C@@H](NC(=O)CN2CCOCC2)[C@@H](CO)O1)NCCc1ccccc1 | 1.02 |
| O=c1cc(CO)occ1O | 0.924 |
| COCCOC(=O)N1C(=O)[C@@]2(c3cc(C#CCNC(N)=O)ccc31)[C@H](C(=O)N1CCc3cc(OC)c(OC)cc3C1)[C@H]1C(=O)O[C@H](c3ccccc3)[C@H](c3ccccc3)N1[C@@H]2c1ccccc1OCCO | 0.813 |
| C[N+](C)(C)CCCCCC[N+](C)(C)C.[Br-].[Br-] | 0.911 |
| CN(C)Cc1cn(CC[C@H]2CC[C@@H](NC(=O)Cc3cccnc3)[C@@H](CO)O2)nn1 | 0.943 |
| COc1ccccc1S(=O)(=O)N(C)C[C@@H]1Oc2cc(C#CCC(C)C)ccc2S(=O)(=O)N([C@H](C)CO)C[C@@H]1C | 1.19 |
| NC(=S)CN1CCCC1=O | 0.886 |
| O=C(C[C@@H]1CC[C@H]2[C@@H](COC[C@@H](O)CN2C(=O)c2ccncc2)O1)NC1CCC1 | 1.07 |

| SMILES | relative growth |
| --- | --- |
| Cn1c(CN)nc2ccccc2c1=O | 1.02 |
| Cc1nc(S(=O)(=O)N[C@H]2CCS(=O)(=O)C2)cn1C | 1.01 |
| CC(C)c1c(O)c(-c2cc3c(c(C(C)C)c2O)CCC2C(C)(C)CCC[C@]32C)cc2c1CCC1C(C)(C)CCC[C@]21C (stereo not given in full) | 0.992 |
| CCc1nc(N)nc(N)c1-c1ccc(Cl)cc1 | 0.231 |
| Cn1nnc2cc(NC(=O)NCCO)ccc21 | 0.906 |
| CC(=O)[C@@]1(O)CC[C@H]2[C@@H]3C[C@H](C)C4=CC(=O)C=C[C@]4(C)[C@@]3(F)[C@@H](O)C[C@@]21C | 0.876 |
| CC1=NN2NC(C(F)(F)F)=NN2C(=O)C1 | 1.03 |
| CCCc1nn(C)c2c(=O)[nH]c(-c3cc(S(=O)(=O)N4CCN(C)CC4)ccc3OCC)nc12.O=C(O)CC(O)(CC(=O)O)C(=O)O | 1.12 |
| NNS(=O)(=O)c1ccc(Oc2ccc(S(=O)(=O)NN)cc2)cc1 | 1.04 |
| C[C@@H]1CN([C@H](C)CO)S(=O)(=O)c2ccc(C#Cc3cccc(F)c3)cc2O[C@@H]1CN(C)S(=O)(=O)c1cn(C)cn1 | 0.874 |
| Cc1cc(C)c2c(c1)NC(=O)C[C@H]2c1cccc(Cl)c1Cl | 1.32 |
| NC1(C#Cc2cncc(C(=O)N3CCOCC3)c2)CCCCC1 | 1.1 |
| CC(=O)ON1C(C)(C)C=C(C(N)=O)C1(C)C | 0.929 |
| O=C1/C(=C/c2cccs2)CCC/C1=C\c1cccs1 | 1 |
| COCC(=O)Nc1ccc2c(c1)OC[C@H](C)N(Cc1ccccc1OC)C[C@@H](C)[C@@H](OC)CN(C)C2=O | 1.01 |
| COc1ccc(S(=O)(=O)N2C[C@@H](O)COC[C@H]3O[C@H](CC(=O)NCc4ccc(Cl)c(Cl)c4)CC[C@@H]32)cc1 | 0.888 |
| Cc1cc(C(=O)O)cc(S(N)(=O)=O)c1 | 1.08 |
| C#CCCCCCCCCCCCC(O)CC(O)COC(C)=O.C=CCCCCCCCCCCCC(O)CC(O)COC(C)=O (stereo not given) | 0.813 |
| C[C@H](CO)N1C[C@H](C)[C@@H](CN(C)C(=O)C2CCOCC2)Oc2cc(-c3ccc(F)cc3)ccc2S1(=O)=O | 0.952 |
| CCN(CC)CCOC(=O)C(Cc1cccc2ccccc12)CC1CCCO1.O=C(O)C(=O)O (stereo not given) | 1.01 |
| O=S(=O)(NCC[C@@H]1CC[C@@H](NS(=O)(=O)c2ccccc2Cl)[C@H](CO)O1)c1ccc(F)cc1 | 0.921 |
| C=CC(C1=CC(=O)C(OC)=CC1=O)c1ccccc1 (stereo not given) | 1.05 |

| SMILES | relative growth |
| --- | --- |
| O=C(C[C@H]1CC[C@H](NC(=O)CN2CCOCC2)[C@H](CO)O1)NCCc1ccccc1 | 1.03 |
| Clc1ccc(C(Cn2ccnc2)OCc2ccsc2Cl)c(Cl)c1 (stereo not given) | 0.845 |
| O=C(c1cccc2ccccc12)N(C1CCCC1)C1CCCC1 | 1.05 |
| C[C@H](O)C#Cc1ccc2c(c1)O[C@H](CN(C)C(=O)Nc1ccccc1)[C@H](C)CN([C@H](C)CO)S2(=O)=O | 0.978 |
| COCCNC(=O)C[C@H]1CC[C@@H]2[C@H](COc3ccc(NC(=O)Nc4cccc(F)c4)cc3C(=O)N2C)O1 | 0.855 |
| CN1CCN(C(=O)C[C@@H]2CC[C@@H]3[C@H](COC[C@H](O)CN3S(=O)(=O)c3cccc(F)c3)O2)CC1 | 1.04 |
| CC(=O)Oc1cc2c(s1)CCN([C@H](C(=O)C1CC1)c1ccccc1F)C2 | 1.34 |
| Nc1ccc(Sc2ccc3ccccc3c2Cl)c(Cl)c1 | 0.886 |
| Cl.NC(CS)C(=O)O (stereo not given) | 0.9 |
| C[C@](N)(Cc1ccc(O)c(O)c1)C(=O)O | 0.931 |
| c1cnc(N2CCN(Cc3ccc4c(c3)OCO4)CC2)nc1 | 0.889 |
| O=C(C[C@@H]1C/C=C/C[C@H](Cc2ccccc2)C(=O)N[C@H](c2ccccc2)COC1=O)NCc1ccc(Cl)cc1 | 0.892 |
| Cc1cc(O)c(C(=O)/C=C/N(C)C)c(=O)o1 | 1.07 |
| COc1cc2c(cc1OC)-c1c(oc3c4c(ccc3c1=O)OC(C)(C)C=C4)CO2 | 1.15 |
| IC(I)I | 0.598 |
| CN1C(=O)c2ccccc2C1=O | 1.02 |
| COc1cccc(C(=O)c2ccccc2)c1 | 0.997 |
| COc1cccc(S(=O)(=O)N2C[C@H](O)COC[C@@H]3O[C@@H](CC(=O)N4CCN(C)CC4)CC[C@H]32)c1 | 0.856 |
| C[C@@H]1COS(=O)(=O)N1 | 0.952 |
